This is an account of results in PubChem BioAssay AID487 (Columbia University Molecular Screening Center, 2006).

The structures appear in SMILES notation. The list shows a part of the results, in another mix than the full data. Active and inactive are the calls of the source.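 How the source made its calls: active means visually confirmed hit in the image check and inhibition above 20%; inconclusive means visually confirmed hit but inhibition not above 20%; inactive means no visual hit in the image check.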

This assay in a line: endothelial E-selectin expression blockers – imaging, HUVEC, immunofluorescence, MLSMR starter and 10KST1 sets, primary screen (AID 487).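 Further: signal is fraction of cell area covered by stained E-selectin grains.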 The note with it: HUVEC TNFalpha-induced E-selectin immunofluorescence imaging; at 2 µM; hits give high values.
The inhibition is the relative decrease from the control value, in per cent. On to `CCN(CC)CC(O)COC(=O)C(O)(c1ccccc1)C1CCCCC1` (stereo unspecified), for which the inhibition is inactive: 9.1%.
With `CP(=O)(Nc1ccccn1)Oc1ccccc1` (stereo unspecified), the inhibition is inactive: 49.1%.
For the compound `CP(=O)(Nc1ccc2c(c1)OCCO2)Oc1ccccc1` (stereo unspecified), the inhibition was inactive: 2.9%.
The value for `CN(C)CCOC(=O)C(O)(c1ccccc1)C1CCCCC1` (stereo unspecified) was inactive: -45%; that for `Cc1ccc(C)c(NP(C)(=O)Oc2ccccc2)c1` (stereo unspecified) was inactive: -32.8%; that for `CP(=S)(Nn1cnnc1)Oc1ccccc1` (stereo unspecified) was inactive: 56.4%.
